# scFv variants of Ab-14 (heavy chain) against a SARS-CoV-2 spike peptide

All variants were tested on one target, the spike HR2 peptide PDVDLGDISGINAS (SARS-CoV-2).

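The parent was found by panning a naive human phage display library on the peptide. Variants in AAYL49 differ from the parent at up to three CDR positions; double and triple changes were sampled at random. Affinity was read by AlphaSeq, a pooled yeast mating assay with surface-displayed partners. Pairs that bind mate more often; barcode pairs of the diploids are counted by sequencing. Scores were corrected for input abundance and mapped to Kd with protein pairs of known affinity run in the same pool. There are three technical replicates.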

Ab-14 is the parent antibody, in scFv form: VH, then the linker GGGGSGGGGSGGGGS, then VL. The light chain is unchanged in all variants.
VH: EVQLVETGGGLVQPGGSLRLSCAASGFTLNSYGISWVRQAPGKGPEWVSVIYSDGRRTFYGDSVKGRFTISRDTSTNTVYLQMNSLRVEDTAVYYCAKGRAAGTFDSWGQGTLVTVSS
VL: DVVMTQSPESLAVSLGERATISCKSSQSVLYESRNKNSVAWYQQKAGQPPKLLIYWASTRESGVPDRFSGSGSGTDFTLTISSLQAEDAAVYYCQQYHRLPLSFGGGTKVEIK

Substitutions are numbered in sequence along the VH above, starting at 1 (not Kabat). Numbers give log10(Kd / nM), so 0 is 1 nM and 3 is 1 µM. Smaller is tighter. Replicates are averaged; those with no signal do not enter the mean. "nd" marks a missing value. The strain was present, yet no cells mated with the target were sequenced in that replicate, which points to weak or no binding. Order: sorted from the lowest average up, undetected variants last. In this assay the parent's reference entry averaged 0.65; its copy inside this library read 4.11 (one replicate of three). Background: pairings of library AAYL49 with three empty control strains gave a value in 15% of cases (median 4.06, 5th percentile 2.83). Values in that range, when seen in few replicates, are hard to tell from nonspecific mating.

| changes | replicates, log10 nM | mean, log10 nM |
|---|---|---|
| R100S A101Q S107W | 0.44 / 0.66 / 0.51 | 0.53 |
| Y32V G61V T104R | 1.84 / 1.85 / 1.89 | 1.86 |
| Y32D D54V D62H | nd / nd / 3.15 | 3.15 |
| S31M T58S A102H | 3.33 / 3.00 / 3.48 | 3.27 |
| F27K S53L T58W | 3.52 / nd / nd | 3.52 |
| F27N T28G K65D | 3.49 / 3.17 / 4.30 | 3.65 |
| G26W L29E S107Y | nd / 3.66 / nd | 3.66 |
| D54P V64A G99C | nd / nd / 3.73 | 3.73 |
| I51C S63T K65E | 4.00 / 4.38 / nd | 4.19 |
| S31Y S35Y D106N | 5.19 / nd / 3.25 | 4.22 |
| R56V D62M S107N | 4.42 / nd / 4.09 | 4.25 |
| L29C Y32I G33S | nd / 4.29 / nd | 4.29 |
| F27H T28P I51P | 4.31 / nd / nd | 4.31 |
| Y32H Y60C G99C | nd / 4.33 / nd | 4.33 |
| S35A T58N S107L | nd / 4.97 / 4.32 | 4.64 |
| I34L G61S G103R | 4.83 / 4.48 / nd | 4.65 |
| I51T Y52W S107L | 4.81 / nd / nd | 4.81 |
| I34P R100S S107C | nd / nd / 5.06 | 5.06 |
| V64G F105G | 5.07 / nd / nd | 5.07 |
| T28P G55T K65F | 5.24 / nd / nd | 5.24 |
| I34L G103D F105E | nd / 5.40 / nd | 5.40 |
| F27Q S53N A102H | nd / nd / nd | nd |
| G55Q A101R F105M | nd / nd / nd | nd |
| G55I G61C A102S | nd / nd / nd | nd |
| S31R G33W V50W | nd / nd / nd | nd |
| L29N S35M | nd / nd / nd | nd |
| I34G Y60R R100T | nd / nd / nd | nd |
| N30F S35R G55N | nd / nd / nd | nd |
| Y32F D54C T58Q | nd / nd / nd | nd |
| G26W R56K S63M | nd / nd / nd | nd |
| T28A I34Q D54A | nd / nd / nd | nd |
| G33Q Y60S D62F | nd / nd / nd | nd |
| S31I G55F Y60D | nd / nd / nd | nd |
| Y32E S63N A102W | nd / nd / nd | nd |
| I51Q D54W G99P | nd / nd / nd | nd |
| S31W T58S G103L | nd / nd / nd | nd |
| G26L S63V A101K | nd / nd / nd | nd |
| Y32K R100C | nd / nd / nd | nd |
| I51F R57V A101H | nd / nd / nd | nd |
| V50M D54W A102E | nd / nd / nd | nd |
| R56N F59G G99D | nd / nd / nd | nd |

Picked from the list: the 2 lowest averages where every replicate gave a value.

| changes | replicates, log10 nM | mean, log10 nM |
|---|---|---|
| R100S A101Q S107W | 0.44 / 0.66 / 0.51 | 0.53 |
| Y32V G61V T104R | 1.84 / 1.85 / 1.89 | 1.86 |

Data: MIT Lincoln Laboratory AlphaSeq set, Engelhart et al. 2022, doi:10.1038/s41597-022-01779-4, as distributed in FLAb.